Patent US20230218773A1 (priority 2020, published 2023)

Test: IVIS imaging of Cy7 albumin conjugates in tumor-bearing mice
Type: in vivo
Conditions: single dose 1 mg/kg Cy7 equivalent, tail vein
Method: FIG. 12: IVIS imaging of tumor-bearing mice after administration of a single dose of Cy7-rHSA (Cy7: rHSA=1:1) and Cy7 (3)-rHSA (Cy7: rHSA=3:1) at 1 mg/kg (Cy7 equivalent amount) through tail vein injection. (Left: back view; right: ventral view).
Tissue distribution: Next, the distribution of MMAE delivered in free drug form and albumin-drug conjugates were measured in select tissues (FIG. 7). In each group, mice were given a single dose of equivalent MMAE and after 24 hours dosing, released MMAE and total MMAE were both measured in homogenized tissues using a highly sensitive LC-MS method. […] Accumulation of free MMAE in MMAE-MAL group was slightly lower (2.2% ID/g), although the difference was not statistically different (p>0.1). […] The differences between free MMAE and total MMAE in healthy tissues indicate that albumin-drug conjugates were still circulating in these tissues in the conjugated form. They were stable in normal tissues but can be efficiently cleaved and released MMAE at the tumor site. Thereby, significant improvement of accumulation of MMAE in tumor was observed. […] In tumor-bearing mice in different treatment arms, we measured the amount of free MMAE and total MMAE present in tumor tissue at different timepoints and calculated the amount over time.

## Cy7(1): Cy7 albumin conjugate with dye to albumin ratio of 1
  signal at tumor site (IVIS imaging): strong signals
